The values that follow are results of earlier work, collected in US11981752B2, “Tumor associated monocyte/macrophage binding peptide and methods of use thereof” (Sanford Burnham Prebys Medical Discovery Institute, priority 2017, dated 2024).

Amino acid sequences for entries named in this document (tags omitted). A change or cut given only in a name is not applied to a line headed by its entry.
UniProt O00329, whole entry: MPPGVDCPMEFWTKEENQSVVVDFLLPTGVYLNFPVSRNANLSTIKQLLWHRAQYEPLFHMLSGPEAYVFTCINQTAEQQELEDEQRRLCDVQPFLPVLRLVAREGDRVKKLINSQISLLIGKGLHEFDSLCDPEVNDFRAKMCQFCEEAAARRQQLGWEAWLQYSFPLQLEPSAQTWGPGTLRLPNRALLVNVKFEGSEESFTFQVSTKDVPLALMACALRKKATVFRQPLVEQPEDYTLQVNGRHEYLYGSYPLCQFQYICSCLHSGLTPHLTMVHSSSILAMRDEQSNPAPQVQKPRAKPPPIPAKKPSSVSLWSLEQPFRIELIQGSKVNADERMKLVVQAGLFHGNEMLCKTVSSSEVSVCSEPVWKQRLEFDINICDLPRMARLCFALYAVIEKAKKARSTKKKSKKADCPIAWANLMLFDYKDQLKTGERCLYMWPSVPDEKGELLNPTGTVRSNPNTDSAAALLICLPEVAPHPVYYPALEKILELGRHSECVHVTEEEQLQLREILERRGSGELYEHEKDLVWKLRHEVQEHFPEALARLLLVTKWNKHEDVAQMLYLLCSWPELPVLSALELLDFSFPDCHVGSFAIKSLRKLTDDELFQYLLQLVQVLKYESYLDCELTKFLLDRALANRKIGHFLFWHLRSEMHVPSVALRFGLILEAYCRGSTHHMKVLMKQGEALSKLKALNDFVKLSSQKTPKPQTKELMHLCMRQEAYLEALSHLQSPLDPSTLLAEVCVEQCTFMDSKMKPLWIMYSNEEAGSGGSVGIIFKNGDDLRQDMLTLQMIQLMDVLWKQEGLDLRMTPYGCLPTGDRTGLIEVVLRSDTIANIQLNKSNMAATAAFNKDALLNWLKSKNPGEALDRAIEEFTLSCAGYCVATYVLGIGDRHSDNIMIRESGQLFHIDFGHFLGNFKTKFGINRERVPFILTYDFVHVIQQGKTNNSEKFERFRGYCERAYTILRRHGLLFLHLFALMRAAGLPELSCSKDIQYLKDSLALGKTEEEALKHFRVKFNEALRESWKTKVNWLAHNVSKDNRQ
UniProt P27986, whole entry partner: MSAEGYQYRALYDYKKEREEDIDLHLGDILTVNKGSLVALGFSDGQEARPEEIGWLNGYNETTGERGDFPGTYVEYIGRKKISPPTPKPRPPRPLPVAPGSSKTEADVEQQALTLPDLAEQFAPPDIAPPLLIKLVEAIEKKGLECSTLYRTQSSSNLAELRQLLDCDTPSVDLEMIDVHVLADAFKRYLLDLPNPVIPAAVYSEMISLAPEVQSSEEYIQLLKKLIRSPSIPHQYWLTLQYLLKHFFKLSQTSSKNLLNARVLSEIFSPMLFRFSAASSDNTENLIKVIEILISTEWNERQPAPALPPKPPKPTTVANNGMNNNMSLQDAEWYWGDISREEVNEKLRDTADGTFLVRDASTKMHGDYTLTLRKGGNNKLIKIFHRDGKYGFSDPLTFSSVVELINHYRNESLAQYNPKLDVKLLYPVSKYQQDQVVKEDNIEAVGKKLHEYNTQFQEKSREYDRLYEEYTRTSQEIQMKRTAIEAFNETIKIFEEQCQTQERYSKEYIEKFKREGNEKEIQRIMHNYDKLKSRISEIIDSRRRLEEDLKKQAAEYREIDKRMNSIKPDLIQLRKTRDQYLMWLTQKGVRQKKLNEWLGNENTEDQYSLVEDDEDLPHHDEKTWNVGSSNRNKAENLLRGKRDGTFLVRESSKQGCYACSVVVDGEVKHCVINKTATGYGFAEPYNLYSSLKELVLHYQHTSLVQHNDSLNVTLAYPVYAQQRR

For the data set, the target named is PI3Kδ (Homo sapiens, UniProt O00329). To be noted: cited from earlier work.

`Cc1ccccc1-n1c(Cn2ncc3c(N)ncnc32)nc2cccc(C)c2c1=O` [PIK-293]: the “selectivity for PI3Kδ over PI3Kα (fold less potent to PI3Kα)” value is given as 500 fold; the “selectivity for PI3Kδ over PI3Kβ (fold less potent to PI3Kβ)” value is reported as 100 fold; the “selectivity for PI3Kδ over PI3Kγ (fold less potent to PI3Kγ)” value is given as 50-fold less potent to PI3Kα/β/γ, respectively.
